This is an account of results in article PMC8545574, “Antioxidant, Anti-Inflammatory, and Antidiabetic Activities of Bioactive Compounds from the Fruits of Livistona chinensis Based on Network Pharmacology Prediction” (Oxidative Medicine and Cellular Longevity, 2021).

Read-outs that look alike come from different tables or passages of the source.

In this assay the target is T1, PTP1B (Homo sapiens, UniProt P18031).
T1 sequence (P18031 1-321 limits assumed): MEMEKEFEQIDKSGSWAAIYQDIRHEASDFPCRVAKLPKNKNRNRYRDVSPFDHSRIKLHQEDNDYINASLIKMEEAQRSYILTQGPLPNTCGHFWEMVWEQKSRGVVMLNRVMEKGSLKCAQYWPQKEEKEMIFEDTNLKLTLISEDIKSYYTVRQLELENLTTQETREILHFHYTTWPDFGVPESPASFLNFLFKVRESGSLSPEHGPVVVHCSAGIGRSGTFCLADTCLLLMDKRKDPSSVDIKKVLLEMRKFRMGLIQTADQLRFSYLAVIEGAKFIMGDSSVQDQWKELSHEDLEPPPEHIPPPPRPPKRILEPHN
Nature of the assay: PTP1B inhibitory assay (p-NPP substrate).

For (+)-pinoresinol [Compound 29], where the note is “read-out: IC50 PTP1B inhibitory effect, mean ± SD, n = 3”, the IC50 (as a rule, the concentration at which inhibition is half-maximal) was determined as 90.2 ± 1.87 µM. Regarding `COc1cc(-c2oc3cc(O)cc(O)c3c(=O)c2O[C@@H]2O[C@H](CO)[C@@H](O)[C@H](O)[C@H]2O)ccc1O` [Compound 11, isorhamnetin-3-O-β-D-glucoside], the IC50 came to 90.21 ± 0.37 µM.
